{
  "sequences": {"note": "The chains behind the UniProt entries cited, without tags or fusion partners.", "UniProt Q9NR96, whole entry": "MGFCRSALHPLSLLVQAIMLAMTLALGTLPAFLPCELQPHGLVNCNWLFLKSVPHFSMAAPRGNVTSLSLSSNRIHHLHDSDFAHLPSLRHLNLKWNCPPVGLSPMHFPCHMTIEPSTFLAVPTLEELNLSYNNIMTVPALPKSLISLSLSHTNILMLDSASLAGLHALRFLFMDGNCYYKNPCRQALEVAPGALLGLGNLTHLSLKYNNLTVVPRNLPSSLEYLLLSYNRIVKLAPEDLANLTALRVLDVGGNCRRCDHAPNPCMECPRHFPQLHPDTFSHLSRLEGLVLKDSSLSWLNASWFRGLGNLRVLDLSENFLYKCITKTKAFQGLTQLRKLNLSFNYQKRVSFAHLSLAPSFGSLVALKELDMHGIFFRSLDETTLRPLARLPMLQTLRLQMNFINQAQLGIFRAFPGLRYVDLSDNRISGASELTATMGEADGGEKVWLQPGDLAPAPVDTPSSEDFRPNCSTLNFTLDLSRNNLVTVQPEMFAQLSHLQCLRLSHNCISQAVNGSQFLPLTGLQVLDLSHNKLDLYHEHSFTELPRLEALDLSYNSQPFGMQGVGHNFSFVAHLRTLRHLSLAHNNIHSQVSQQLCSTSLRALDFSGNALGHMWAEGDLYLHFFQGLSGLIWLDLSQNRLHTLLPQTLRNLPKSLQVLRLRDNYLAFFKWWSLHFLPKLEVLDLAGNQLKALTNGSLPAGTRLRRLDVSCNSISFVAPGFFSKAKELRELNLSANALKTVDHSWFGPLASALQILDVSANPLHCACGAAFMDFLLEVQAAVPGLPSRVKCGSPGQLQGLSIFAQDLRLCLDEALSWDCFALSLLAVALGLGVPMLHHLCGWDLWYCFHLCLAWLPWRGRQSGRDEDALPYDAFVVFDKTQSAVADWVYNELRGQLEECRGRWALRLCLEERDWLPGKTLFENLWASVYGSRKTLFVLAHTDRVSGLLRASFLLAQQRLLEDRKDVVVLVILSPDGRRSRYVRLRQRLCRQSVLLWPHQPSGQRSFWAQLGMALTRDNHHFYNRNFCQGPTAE"},
  "source": "PubChem BioAssay AID504734",
  "about": "(The Scripps Research Institute Molecular Screening Center, 2011)",
  "note": "The entries are a selection whose mix differs from that of the whole data set. Activity calls are given as the source filed them.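 The calls were made as follows: active = inhibition above the mean over all tested compounds plus 3 SD (cut at about 21% in these data); inactive = the rest.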",
  "data": [
    {"target": "Toll-like receptor 9 (Homo sapiens) + Myeloid differentiation primary response protein MyD88 (Homo sapiens) (UniProt Q9NR96+Q99836)", "test": "inhibitors of TLR9-MyD88 association in cells, primary screen, cell-based, CHO, BLA complementation, fluorescence (AID 504734);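 also: 0% = DMSO only wells and 100% = clavulanate BLA inhibitor control wells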", "conditions": "CHO BLA complementation TLR9-MyD88, CCF4 FRET ratio; at 4.98 µM; stronger effect = higher value", "values": [
      {"smiles": "CCC(=O)N(c1ccccc1)C1(COC)CCN(CCc2cccs2)CC1", "inhibition": "inactive: -4.75%"},
      {"smiles": "CCC(=O)N(c1ccccc1)C1(COC)CCN(CCn2nnn(CC)c2=O)CC1", "inhibition": "inactive: 10.2%"}
    ]}
  ]
}
